Assays:
[1] = target: cGMP-inhibited 3',5'-cyclic phosphodiesterase 3B (Homo sapiens, UniProt Q13370)
[2] = target: cGMP-inhibited 3',5'-cyclic phosphodiesterase 3A (Homo sapiens, UniProt Q14432)
[3] = Inhibition of PDE4A1A
[4] = target: Dual specificity calcium/calmodulin-dependent 3',5'-cyclic nucleotide phosphodiesterase 1B (Homo sapiens, UniProt Q01064)

The chains behind the UniProt entries cited, without tags or fusion partners. Where a name states a change or a piece, a line headed by the entry shows the natural chain unless it says otherwise.
UniProt Q13370: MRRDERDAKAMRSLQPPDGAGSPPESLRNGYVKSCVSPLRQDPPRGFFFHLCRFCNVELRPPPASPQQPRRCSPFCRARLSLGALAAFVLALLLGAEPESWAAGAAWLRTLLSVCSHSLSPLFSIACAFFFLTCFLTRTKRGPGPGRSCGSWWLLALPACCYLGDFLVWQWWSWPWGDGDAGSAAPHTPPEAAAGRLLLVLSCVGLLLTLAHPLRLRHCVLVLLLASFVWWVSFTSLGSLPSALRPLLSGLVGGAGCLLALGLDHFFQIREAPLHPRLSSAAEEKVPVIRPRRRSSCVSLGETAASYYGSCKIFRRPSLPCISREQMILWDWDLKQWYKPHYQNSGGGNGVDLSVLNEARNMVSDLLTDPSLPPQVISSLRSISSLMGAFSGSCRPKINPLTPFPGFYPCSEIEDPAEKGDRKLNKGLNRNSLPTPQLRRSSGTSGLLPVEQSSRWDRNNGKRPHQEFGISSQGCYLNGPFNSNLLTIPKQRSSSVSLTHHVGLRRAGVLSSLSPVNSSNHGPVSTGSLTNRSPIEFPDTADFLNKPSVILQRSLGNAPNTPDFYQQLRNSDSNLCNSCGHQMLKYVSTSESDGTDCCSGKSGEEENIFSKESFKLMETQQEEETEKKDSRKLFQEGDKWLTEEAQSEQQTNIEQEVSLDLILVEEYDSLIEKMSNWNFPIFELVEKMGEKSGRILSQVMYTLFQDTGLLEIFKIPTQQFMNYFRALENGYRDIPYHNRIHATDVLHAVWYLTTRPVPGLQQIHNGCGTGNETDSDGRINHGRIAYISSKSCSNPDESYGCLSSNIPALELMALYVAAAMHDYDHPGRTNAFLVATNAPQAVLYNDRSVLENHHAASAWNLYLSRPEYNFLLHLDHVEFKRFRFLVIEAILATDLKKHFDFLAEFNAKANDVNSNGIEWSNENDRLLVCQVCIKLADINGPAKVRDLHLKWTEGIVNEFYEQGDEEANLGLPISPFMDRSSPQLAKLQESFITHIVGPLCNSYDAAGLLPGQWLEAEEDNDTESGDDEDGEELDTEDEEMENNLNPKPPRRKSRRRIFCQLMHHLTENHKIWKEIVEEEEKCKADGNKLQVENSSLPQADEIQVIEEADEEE
UniProt Q14432: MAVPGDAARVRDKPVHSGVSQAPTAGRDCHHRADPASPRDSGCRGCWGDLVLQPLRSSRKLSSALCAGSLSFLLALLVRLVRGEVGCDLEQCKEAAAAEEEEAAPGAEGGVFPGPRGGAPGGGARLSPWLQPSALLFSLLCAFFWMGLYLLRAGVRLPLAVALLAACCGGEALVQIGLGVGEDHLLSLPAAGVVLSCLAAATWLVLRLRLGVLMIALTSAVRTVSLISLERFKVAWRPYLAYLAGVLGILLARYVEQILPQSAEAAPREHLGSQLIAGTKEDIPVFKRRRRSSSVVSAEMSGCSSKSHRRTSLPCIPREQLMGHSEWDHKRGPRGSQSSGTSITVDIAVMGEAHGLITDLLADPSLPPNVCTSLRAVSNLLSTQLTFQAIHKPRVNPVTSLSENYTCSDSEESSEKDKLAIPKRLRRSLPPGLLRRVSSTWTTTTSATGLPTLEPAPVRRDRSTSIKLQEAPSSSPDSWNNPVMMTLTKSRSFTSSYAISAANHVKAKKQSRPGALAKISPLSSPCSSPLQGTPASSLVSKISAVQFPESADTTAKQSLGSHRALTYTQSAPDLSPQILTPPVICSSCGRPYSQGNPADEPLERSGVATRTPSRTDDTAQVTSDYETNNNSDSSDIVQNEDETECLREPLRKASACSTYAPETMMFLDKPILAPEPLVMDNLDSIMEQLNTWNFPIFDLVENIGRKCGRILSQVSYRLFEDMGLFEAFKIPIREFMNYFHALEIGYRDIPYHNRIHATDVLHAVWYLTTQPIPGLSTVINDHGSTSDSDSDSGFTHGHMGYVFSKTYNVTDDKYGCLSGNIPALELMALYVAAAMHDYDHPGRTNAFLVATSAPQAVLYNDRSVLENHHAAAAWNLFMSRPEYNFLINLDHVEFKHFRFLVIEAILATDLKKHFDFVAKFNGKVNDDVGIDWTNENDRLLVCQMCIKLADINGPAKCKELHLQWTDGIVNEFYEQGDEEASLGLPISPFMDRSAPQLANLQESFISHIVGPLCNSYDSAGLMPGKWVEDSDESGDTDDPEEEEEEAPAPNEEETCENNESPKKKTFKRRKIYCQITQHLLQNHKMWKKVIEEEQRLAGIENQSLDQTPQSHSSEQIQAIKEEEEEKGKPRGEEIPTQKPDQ
UniProt Q01064: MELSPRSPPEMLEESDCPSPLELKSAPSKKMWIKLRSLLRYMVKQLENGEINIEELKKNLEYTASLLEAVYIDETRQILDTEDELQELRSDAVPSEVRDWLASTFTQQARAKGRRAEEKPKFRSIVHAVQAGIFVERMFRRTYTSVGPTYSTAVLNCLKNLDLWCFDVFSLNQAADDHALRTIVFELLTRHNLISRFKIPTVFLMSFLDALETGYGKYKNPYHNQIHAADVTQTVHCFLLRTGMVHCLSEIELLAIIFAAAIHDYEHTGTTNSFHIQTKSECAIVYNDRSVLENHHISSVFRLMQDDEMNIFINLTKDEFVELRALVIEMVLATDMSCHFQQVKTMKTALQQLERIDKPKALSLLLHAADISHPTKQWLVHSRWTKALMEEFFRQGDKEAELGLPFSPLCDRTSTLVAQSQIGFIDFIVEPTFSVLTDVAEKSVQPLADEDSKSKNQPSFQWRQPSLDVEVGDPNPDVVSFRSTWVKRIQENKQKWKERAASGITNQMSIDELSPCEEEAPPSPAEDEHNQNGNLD

## COc1ccc(C2CNC(=O)C2)cc1OC1CCCC1 (centres undefined) [ROLIPRAM]
[1]
  IC50: Not Active
[2]
  IC50: Not Active

## COc1ccc(OC)c(-c2nnc3n2N=C(c2ccc(OC)c(O[C@@H]4CCOC4)c2)CS3)c1
[3]
  IC50: 0.26 nM

## COc1ccc(OC)c(-c2nnc3n2N=C(c2ccc(OC)c(OC)c2)CS3)c1
[4]
  IC50: Not Active

From ChEMBL document CHEMBL1151934, “Exploration and optimization of substituted triazolothiadiazines and triazolopyridazines as PDE4 inhibitors” (Bioorg Med Chem Lett, 2009)
